The record followed here is publication PMC12302720 (The Journal of Biological Chemistry, 2025).

Protein sequences, listed by entry. Tags and fused reporters are not part of them.
UniProt A0A2K5X4I2, entry or part of it: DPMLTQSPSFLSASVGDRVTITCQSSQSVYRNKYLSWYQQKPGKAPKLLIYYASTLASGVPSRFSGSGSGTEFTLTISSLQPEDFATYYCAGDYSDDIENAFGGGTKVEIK

In assay [1] the target is T1, extracellular domain of human CD47 (HuCD47 ECD) (human, UniProt Q08722).
T1 construct: human CD47 extracellular domain, amino acids Gln1-Pro121; source: bought: Acro Biosystems; not shown: His6, C-terminal, kept
In words: BLI; Octet Red96; 5 ug/ml antibody held on anti-human IgG-Fc biosensors; 2-fold dilutions of HuCD47 ECD or CyCD47 ECD in 1 x PBS, 0.1% BSA, 0.02% Tween-20; 1:1 Langmuir global fit; apparent Kd. To be noted: both partners purified. In general terms: Biolayer interferometry detects binding as a change in optical thickness at a sensor tip.

The target of assay [2] is T2, extracellular domain of cynomolgus CD47 (CyCD47 ECD) (Macaca fascicularis, UniProt A0A2K5X4I2).
T2 construct: cynomolgus CD47 extracellular domain; source: bought: Acro Biosystems
Described as above. To be noted: both partners purified.

The target of assay [3] is T3, CD47 on the surface of human cells (Homo sapiens, UniProt Q08722).
T3 construct: human CD47, endogenous on the cell surface; also called CD47 on CCRF-CEM cells; CD47 on Raji cells; source: endogenous, on CCRF-CEM, Raji, HAEC and RPTEC cells and human RBCs
Description: flow cytometry on cells; serially diluted antibodies on tumor cells (CCRF-CEM, Raji), 4 °C, 30 min; FITC anti-human IgG. To be noted: one partner purified. In general terms: Flow cytometry measures light scatter and fluorescence of single cells or particles in a stream.

The target in assay [4] is T1, extracellular domain of human CD47 …. Description: ELISA; plates coated with 1 ug/ml HuCD47 ECD or CyCD47 ECD in 0.1 M PBS; serially diluted antibodies, 37 °C, 2 h; bound antibody detected with anti-human Fc HRP. To be noted: both partners purified. (ELISA stands for enzyme-linked immunosorbent assay.)
Assay [5] addresses T2, extracellular domain of cynomolgus CD47 …. The description is as above. To be noted: both partners purified.

Residue numbers refer to the chain shown, from its start.

B1: H3L1, humanized variant of 1C8 (antibody, V domains shown)
VH: QSVKESGGGLFQPGGSLRLSCSVSGFSLSSYAISWVRQAPGKGLEYIGYISSIGDPYYADWVKGRFTISRDSSTVYLQMTSLRAEDTAVYFCARSYPGNGDLGRLDIWGQGTTVTVSS
VL: DIQLTQSPSFLSASVGDRVTITCQSSQSVYRNKYLSWYQQKPGKAPKLLIYYASTLASGVPSRFSGSGSGTEFTLTISSLQPEDFATYYCAGDYSDDIENAFGQGTKVEIK
In the case of B1, in assay [1], the “fold lower binding affinity than 1C8” value was 3 fold.

B2: Hu1C8, humanized anti-CD47 monoclonal antibody (antibody, V domains shown)
VH: B1 VH
VL: B1 VL with I2P, Q3M, Q104G
Take B2: the binding result in assay [2] was “binds”.

B3: 1C8, rabbit-derived anti-CD47 monoclonal antibody (rabbit variable regions on human IgG4PE and Igκ) (antibody, V domains shown)
VH: QSVKESEGGLFKPTDTLTLTCTVSGFSLSSYAISWVRQAPGKGLEYIGYISSIGDPYYASWVNGRFTISRTSSTVTLKMTSLTAADTATYFCARSYPGNGDLGRLDIWGQGTLVTVSS
VL: DPMLTQTPSPVSAAVGGTVSISCQSSQSVYRNKYLSWYQQKPGQPPKLLIYYASTLASGVPSRFKGSGSGTQFTLTISDVQCDDAATYYCAGDYSDDIENAFGGGTEVVVK
For B3, the binding result in assay [3], in assay [4] and in assay [5] was “binds” throughout.
